Measured values published in patent US20060094722A1 (Eisai Co., Ltd., priority 2002, published 2006).

Amino acid sequences for entries named in this document (tags omitted). A change or cut given only in a name is not applied to a line headed by its entry.
UniProt P22411: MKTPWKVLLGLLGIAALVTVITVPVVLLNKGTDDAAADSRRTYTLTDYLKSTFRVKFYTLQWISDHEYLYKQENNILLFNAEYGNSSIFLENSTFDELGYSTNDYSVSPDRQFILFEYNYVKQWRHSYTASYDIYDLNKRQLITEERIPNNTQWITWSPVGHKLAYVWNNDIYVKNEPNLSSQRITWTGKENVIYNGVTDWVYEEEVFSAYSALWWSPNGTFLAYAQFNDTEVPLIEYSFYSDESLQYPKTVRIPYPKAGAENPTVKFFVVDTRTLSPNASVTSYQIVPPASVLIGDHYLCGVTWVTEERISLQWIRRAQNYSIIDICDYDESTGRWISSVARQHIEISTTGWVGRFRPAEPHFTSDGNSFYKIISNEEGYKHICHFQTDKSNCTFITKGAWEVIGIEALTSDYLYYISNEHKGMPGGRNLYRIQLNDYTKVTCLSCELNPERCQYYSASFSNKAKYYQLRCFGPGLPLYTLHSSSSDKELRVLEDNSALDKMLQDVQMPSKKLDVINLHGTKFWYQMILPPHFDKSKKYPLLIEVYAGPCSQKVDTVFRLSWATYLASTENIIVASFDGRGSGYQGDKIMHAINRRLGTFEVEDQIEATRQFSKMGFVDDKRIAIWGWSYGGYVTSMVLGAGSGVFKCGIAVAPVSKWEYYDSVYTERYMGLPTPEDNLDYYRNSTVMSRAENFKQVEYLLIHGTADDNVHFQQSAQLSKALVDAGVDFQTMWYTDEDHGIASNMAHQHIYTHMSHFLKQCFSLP

Biological target: T1, DPPIV obtained from swine kidney (Sus scrofa, UniProt P22411)
T1 construct: DPPIV obtained from swine kidney; from tissue; host or cells: swine kidney
Test: Assay for the DPPIV-inhibiting activity
Assay type: biochemical
Settings: DPPIV 10 mU/mL, Gly-Pro-p-nitroanilide 0.33 mM, absorbance 405 nm
Description: DPPIV obtained from swine kidney was dissolved in a reaction buffer (50 mM Tris-HCl (pH 7.4)/0.1% BSA) at a fmal concentration of 10 mU/mL. A 110 μL aliquot of this enzyme solution was added to the reaction system, and then 15 μL of an agent was added. The reaction solution was incubated at room temperature for 20 minutes. 25 μL of a solution containing 2 mM Gly-Pro-p-nitroanilide was added to the reaction solution (at the final concentration of 0.33 mM) to start the enzyme reaction. The reaction time was 20 minutes. 25 μL of 1N phosphate solution was added to stop the reaction. […] The degree of inhibition to the enzyme reaction was determined, and IC50 was computed based on the absorbance.

IC50 (read-out: IC50) [nM] | IC50 (IC50 (nM)) [nM] | Compound
287 | – | CCOC(=O)COc1nc2nc(N3CCNCC3)n(-c3ccccc3Cl)c2c(=O)n1C [Example 1, Ethyl[7-(2-chlorophenyl)-1-methyl-6-oxo-8-(piperazin-1-yl)-6,7-dihydro-1H-purin-2-yloxy]acetate trifluoroacetate]
401 | – | CC#CCn1c(N2CCNCC2)nc2nc(OC3CCCC3)n(C)c(=O)c21 [Example 7, 7-(2-Butynyl)-2-cyclopentyloxy-1-methyl-8-(piperazin-1-yl)-1,7-dihydropurin-6-one trifluoroacetate]
152 | – | CC#CCn1c(N2CCNCC2)nc2nc(Oc3ccccc3)n(C)c(=O)c21 [Example 20, 7-(2-Butynyl)-1-methyl-2-phenoxy-8-(piperazin-1-yl)-1,7-dihydropurin-6-one trifluoroacetate]
17 | – | CC#CCn1c(N2CCNCC2)nc2nc(C)n(C)c(=O)c21 [Example 22, 7-(2-Butynyl)-1,2-dimethyl-8-(piperazin-1-yl)-1,7-dihydropurin-6-one trifluoroacetate]
310 | – | CC#CCn1c(N2CCNCC2)nc2nc(N(C)C)n(C)c(=O)c21 [Example 29, 7-(2-Butynyl)-1-methyl-2-dimethylamino-8-(piperazin-1-yl)-1,7-dihydropurin-6-one trifluoroacetate]
46.9 | – | CC#CCn1c(N2CCNCC2)nc2nc(N3CCC[C@H]3C(=O)O)n(C)c(=O)c21 [Example 53, (S)-1-[7-(2-Butynyl)-1-methyl-6-oxo-8-(piperazin-1-yl)-6,7-dihydro-1H-purin-2-yl]pyrrolidine-2-carboxylic acid trifluoroacetate]
126 | – | CC#CCn1c(N2CCNCC2)nc2nc(NC(C)C(=O)O)n(C)c(=O)c21 (centres unmarked) [Example 64, 2-[7-(2-Butynyl)-1-methyl-6-oxo-8-(piperazin-1-yl)-6,7-dihydro-1H-purin-2-ylamino]propionic acid trifluoroacetate]
33.4 | – | CC#CCn1c(N2CCNCC2)nc2nc(Sc3ccccn3)n(C)c(=O)c21 [Example 73, 7-(2-Butynyl)-1-methyl-8-(piperazin-1-yl)-2-(pyridin-2-ylsulfanyl)-1,7-dihydropurin-6-one trifluoroacetate]
86.5 | – | CC#CCn1c(N2CCNCC2)nc2nc(SC(C)C)n(C)c(=O)c21 [Example 76, 7-(2-Butynyl)-2-isopropylsulfanyl-1-methyl-8-(piperazin-1-yl)-1,7-dihydropurin-6-one trifluoroacetate]
161 | – | CC#CCn1c(N2CCNCC2)nc2nc(C#N)n(C)c(=O)c21.O=C(O)C(F)(F)F [Example 82, 7-(2-Butynyl)-2-cyano-1-methyl-8-(piperazin-1-yl)-1,7-dihydropurin-6-one trifluoroacetate]
– | 4.08 | CC#CCn1c(N2CCNCC2)nc2nc(OC)n(CCc3ccccc3)c(=O)c21 [Example 86, 7-(2-Butynyl)-2-methoxy-1-(2-phenylethyl)-8-(piperazin-1-yl)-1,7-dihydropurin-6-one hydrochloride]
– | 2.89 | CC#CCn1c(N2CCNCC2)nc2nc(SCC(=O)OC)n(CCc3ccccc3)c(=O)c21 [Example 88, Methyl[7-(2-butynyl)-6-oxo-1-(2-phenylethyl)-8-(piperazin-1-yl)-6,7-dihydro-1H-purin-2-ylsulfanyl]acetate hydrochloride]
– | 9.69 | CC#CCn1c(N2CCNCC2)nc2nc(OC)n(Cc3ccccc3C#N)c(=O)c21 [Example 98, 2-[7-(2-Butynyl)-2-methoxy-6-oxo-8-(piperazin-1-yl)-6,7-dihydropurin-1-ylmethyl]benzonitrile hydrochloride]
116 | – | CC#CCn1c(N2CCCC(N)C2)nc2cnn(C)c(=O)c21.O=C(O)C(F)(F)F (centres unmarked) [Example 120, 2-(3-Aminopiperidin-1-yl)-3-(2-butynyl)-5-methyl-3,5-dihydroimidazo[4,5-d]pyridazin-4-one trifluoroacetate]
68.5 | – | CC#CCn1c(N2CCNCC2)nc2nc(Sc3nccs3)n(C)c(=O)c21 [Example 142, 7-(2-Butynyl)-1-methyl-8-(piperazin-1-yl)-2-(thiazol-2-ylsulfanyl)-1,7-dihydropurin-6-one trifluoroacetate]
81.7 | – | CC#CCn1c(N2CCNCC2)nc2nc(SC(C)c3cccs3)n(C)c(=O)c21 (centres unmarked) [Example 146, 7-(2-Butynyl)-1-methyl-8-(piperazin-1-yl)-2-[1-(thiophen-2-yl)ethylsulfanyl]-1,7-dihydropurin-6-one trifluoroacetate]

IC50 (read-out: IC50) [nM] | IC50 (IC50 (nM)) [nM] | Compound
37.7 | – | CC#CCn1c(N2CCNCC2)nc2nc(Sc3nc(C)cs3)n(C)c(=O)c21 [Example 159, 7-(2-Butynyl)-1-methyl-2-(4-methylthiazol-2-ylsulfanyl)-8-(piperazin-1-yl)-1,7-dihydropurin-6-one trifluoroacetate]
– | 8.97 | CC#CCn1c(N2CCNCC2)nc2nc(C#N)n(Cc3ccccc3C#N)c(=O)c21.Cl [Example 229, 7-(2-Butynyl)-1-(2-cyanobenzyl)-6-oxo-8-(piperazin-1-yl)-6,7-dihydro-1H-purine-2-carbonitrile hydrochloride]
0.89 | – | CC#CCn1c(N2CCNCC2)nc2nc(Oc3cccnc3C(N)=O)n(Cc3ccccc3C#N)c(=O)c21 [Example 230, 3-[7-(2-Butynyl)-1-(2-cyanobenzyl)-6-oxo-8-(piperazin-1-yl)-6,7-dihydro-1H-purine-2-yloxy]pyridine-2-carboxylic amide trifluoroacetate]
1.74 | – | CC#CCn1c(N2CCNCC2)nc2nc(Oc3ccccc3C(N)=O)n(Cc3ccccc3C#N)c(=O)c21 [Example 234, 2-[7-(2-Butynyl)-1-(2-cyanobenzyl)-6-oxo-8-(piperazin-1-yl)-6,7-dihydro-1H-purin-2-yloxy]benzamide trifluoroacetate]
– | 2.15 | CC#CCn1c(N2CCCC(N)C2)nc2nc(OC)n(Cc3ccccc3C#N)c(=O)c21 (centres unmarked) [Example 243, 2-[8-(3-Aminopiperidin-1-yl)-7-(2-butynyl)-2-methoxy-6-oxo-6,7-dihydropurin-1-ylmethyl]benzonitrile hydrochloride]
6.4 | – | CC#CCn1c(N2CCCC(N)C2)nc2nc(Oc3ccccc3C(N)=O)n(C)c(=O)c21 (centres unmarked) [Example 248, 2-[8-(3-Aminopiperidin-1-yl)-7-(2-butynyl)-1-methyl-6-oxo-6,7-dihydro-1H-purin-2-yloxy]benzamide trifluoroacetate]
1.15 | – | CC#CCn1c(N2CCNCC2)nc2cnn(CC(=O)c3cccc(OC)c3)c(=O)c21 [Example 266, 3-(2-Butynyl)-5-[2-(3-methoxyphenyl)-2-oxoethyl]-2-(piperazin-1-yl)-3,5-dihydroimidazo[4,5-d]pyridazin4-one trifluoroacetate]
7.22 | – | CC#CCn1c(N2CCNCC2)nc2cnn(Cc3ccccc3C#N)c(=O)c21.O=C(O)C(F)(F)F [Example 267, 2-[3-(2-Butynyl)-4-oxo-2-(piperazin-1-yl)-3,4-dihydroimidazo[4,5-d]pyridazin-5-ylmethyl]benzonitrile trifluoroacetate]
6.22 | – | CC#CCn1c(N2CCNCC2)nc2cnn(Cc3c(F)cccc3C#N)c(=O)c21 [Example 297, 2-[3-(2-Butynyl)-4-oxo-2-(piperazin-1-yl)-3,4-dihydroimidazo[4,5-d]pyridazin-5-ylmethyl]-3-fluorobenzonitrile trifluoroacetate]
9.48 | – | CC#CCn1c(N2CCNCC2)nc2c1c(=O)n(Cc1ccccc1C#N)c(=O)n2C [Example 364, 2-[7-(2-Butynyl)-3-methyl-2,6-dioxo-8-(piperazin-1-yl)-2,3,6,7-tetrahydropurin-1-ylmethyl]benzonitrile trifluoroacetate]
9.52 | – | Cn1c(=O)n(CC(=O)c2ccccc2)c(=O)c2c1nc(N1CCNCC1)n2-c1ccccc1Cl [Example 378, 7-(2-Chlorophenyl)-3-methyl-1-(2-oxo-2-phenylethyl)-8-(piperazin-1-yl)-3,7-dihydropurine-2,6-dione trifluoroacetate]
6.97 | – | COc1ccccc1-n1c(N2CCNCC2)nc2c1c(=O)n(CC(=O)c1ccccc1)c(=O)n2C [Example 382, 7-(2-Methoxyphenyl)-3-methyl-1-(2-oxo-2-phenylethyl)-8-(piperazin-1-yl)-3,7-dihydropurine-2,6-dione trifluoroacetate]
7.18 | – | COc1ccccc1-n1c(N2CCNCC2)nc2c1c(=O)n(CCc1ccccc1)c(=O)n2C [Example 383, 7-(2-Methoxyphenyl)-3-methyl-1-(2-phenylethyl)-8-(piperazin-1-yl)-3,7-dihydropurine-2,6-dione trifluoroacetate]
1.2 | – | O=C(O)Cn1c(=O)n(CCc2ccccc2)c(=O)c2c1nc(N1CCNCC1)n2-c1ccccc1Cl [Example 393, [7-(2-Chlorophenyl)-2,6-dioxo-1-phenethyl-8-(piperazin-1-yl)-1,2,6,7-tetrahydropurin-3-yl]acetic acid trifluoroacetate]
2.16 | – | NC(=O)Cn1c(=O)n(CCc2ccccc2)c(=O)c2c1nc(N1CCNCC1)n2-c1ccccc1Cl [Example 394, 2-[7-(2-Chlorophenyl)-2,6-dioxo-1-phenethyl-8-(piperazin-1-yl)-1,2,6,7-tetrahydropurin-3-yl]acetamide trifluoroacetate]
0.864 | – | CC#CCn1c(N2CCNCC2)nc2c1c(=O)n(CCc1ccccc1)c(=O)n2CC(=O)O [Example 417, [7-(2-Butynyl)-2,6-dioxo-1-(2-phenethyl)-8-(piperazin-1-yl)-1,2,6,7-tetrahydropurin-3-yl]acetic acid hydrochloride]

Structures can show the parent of a compound that is named as a salt. Where two headings read alike, the source gives them in different places.
